Sequences of proteins named here, by UniProt entry; tags and fusion partners are left off. Residues count along the entry.
UniProt Q07820, 172-327: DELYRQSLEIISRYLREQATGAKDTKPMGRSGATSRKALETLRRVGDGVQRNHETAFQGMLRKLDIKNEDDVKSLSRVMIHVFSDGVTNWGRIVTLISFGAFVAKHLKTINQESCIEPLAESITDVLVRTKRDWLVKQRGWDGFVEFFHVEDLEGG

One test has as its target recombinant Mcl-1 (residues 172-327) (Homo sapiens (Human), UniProt Q07820). Kind of test: Bak peptide fluorescence polarization anisotropy competition assay, Mcl-1. Format: binding.
Details: not given
As for `Cc1cc(OCCCc2c(C(=O)O)oc3ccccc23)cc(C)c1Cl` [Example 26, 3-(3-(4-chloro-3,5-dimethylphenoxy)propyl)benzofuran-2-carboxylic acid], the Ki fell in the range of 1000 to 9990 nM.
For the molecule `O=C(O)c1sc2cccc(Cl)c2c1CCCOc1cccc2ccccc12` [Example 3, 4-chloro-3-(3-(naphthalen-1-yloxy)propyl)benzo[b]thiophene-2-carboxylic acid], the Ki fell in the range of 1000 to 9990 nM.
Same read-out and setting: as for `Cc1cc(OCCCc2c(C(=O)O)sc3cccc(Cl)c23)cc(C)c1Cl` [Example 4, 4-chloro-3-(3-(4-chloro-3,5-dimethylphenoxy)propyl)benzo[b]thiophene-2-carboxylic acid], the figure is 1000 to 9990 nM; as for `Cc1cc(OCCCc2c(C(=O)O)sc3cc(Cl)ccc23)cc(C)c1Cl` [Example 6], 101 to 299 nM; as for `O=C(O)c1sc2c(Cl)cccc2c1CCCOc1cccc2ccccc12` [Example 7, 7-chloro-3-(3-(naphthalen-1-yloxy)propyl)benzo[b]thiophene-2-carboxylic acid], 501 to 999 nM.
The same measure, in the same setting: as for `Cc1cc(OCCCc2c(C(=O)O)sc3c(Cl)cccc23)cc(C)c1Cl` [Example 8, 7-chloro-3-(3-(4-chloro-3,5-dimethylphenoxy)propyl) benzo[b]thiophene-2-carboxylic acid], the figure is 501 to 999 nM; as for `O=C(O)c1oc2ccc(Cl)cc2c1CCCOc1cccc2ccccc12` [Example 24, 5-chloro-3-(3-(naphthalen-1-yloxy)propyl)benzofuran-2-carboxylic acid], 1000 to 9990 nM.

Staying with this test, now noted: Table 3; FITC-Bak peptide 10 nM, Mcl-1 14 nM; read-out: Ki Mcl-1.
With `Cc1cc(OCCCc2c(C(=O)O)sc3cc(Cl)ccc23)cc(C)c1Cl` [Example 6], the Ki was 210 nM.
